Target: CD44 antigen (Homo sapiens) (UniProt P16070)
Test: Displacement of HA-FITC from CD44 in human MDA-MB-231 cells assessed as fold decrease in fluorescent intensity at 120 ug/ml incubated for 45 mins by competitive binding assay based flow cytometric analysis
Format: cell-based
Conditions: dose 120.0 µg/ml

Chains of the proteins cited; added tags and fusions are not shown. Lines headed by an entry give the natural chain unless they say otherwise; changes in a name come on top.
UniProt P16070: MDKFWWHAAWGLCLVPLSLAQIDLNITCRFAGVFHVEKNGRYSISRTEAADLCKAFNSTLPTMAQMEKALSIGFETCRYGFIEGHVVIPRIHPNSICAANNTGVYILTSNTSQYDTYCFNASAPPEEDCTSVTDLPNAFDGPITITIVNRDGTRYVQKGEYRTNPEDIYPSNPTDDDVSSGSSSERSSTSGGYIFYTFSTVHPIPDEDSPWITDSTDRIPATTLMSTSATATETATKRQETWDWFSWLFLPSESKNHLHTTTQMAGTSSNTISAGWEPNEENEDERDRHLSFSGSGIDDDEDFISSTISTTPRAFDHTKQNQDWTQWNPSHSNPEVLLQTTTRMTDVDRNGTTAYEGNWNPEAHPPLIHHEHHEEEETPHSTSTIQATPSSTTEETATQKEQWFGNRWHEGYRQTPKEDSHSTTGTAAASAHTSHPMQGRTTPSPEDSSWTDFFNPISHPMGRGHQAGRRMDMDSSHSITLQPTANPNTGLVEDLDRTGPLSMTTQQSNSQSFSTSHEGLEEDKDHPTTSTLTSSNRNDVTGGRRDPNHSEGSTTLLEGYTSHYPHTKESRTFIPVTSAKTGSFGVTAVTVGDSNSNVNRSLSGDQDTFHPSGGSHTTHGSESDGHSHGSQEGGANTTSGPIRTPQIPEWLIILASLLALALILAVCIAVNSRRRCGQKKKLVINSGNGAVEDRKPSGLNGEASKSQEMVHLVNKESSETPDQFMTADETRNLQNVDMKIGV

| fold change (FC) | Compound |
| --- | --- |
| 1.3 | CC(=O)CCN1CCc2ccccc2C1 |
| 1.5 | COc1cc(CN2CCc3c(Br)cccc3C2)cc(OC)c1OC |
| 1.8 | COc1cc(CN2CCc3c(N)cccc3C2)cc(OC)c1OC |
